Test results from PubChem BioAssay (NCI).
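Five concentrations, 48 hours, 96-well plates. At the GI50, growth is halved. TGI: concentration producing complete growth inhibition.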

Experiments:
Experiment in all cases: NCI tumour cell line growth inhibition, 48 h
786-0 renal = tested on: 786-0 renal
A498 renal = tested on: A498 renal
A549 NSCLC = tested on: A549 NSCLC
ACHN renal = tested on: ACHN renal
BT-549 breast = tested on: BT-549 breast
CAKI-1 renal = tested on: CAKI-1 renal
CCRF-CEM leukemia = tested on: CCRF-CEM leukemia
COLO 205 colon = tested on: COLO 205 colon
DU-145 prostate = tested on: DU-145 prostate
EKVX NSCLC = tested on: EKVX NSCLC
HCC-2998 colon = tested on: HCC-2998 colon
HCT-116 colon = tested on: HCT-116 colon
HCT-15 colon = tested on: HCT-15 colon
HL-60(TB) leukemia = tested on: HL-60(TB) leukemia
HOP-62 NSCLC = tested on: HOP-62 NSCLC
HOP-92 NSCLC = tested on: HOP-92 NSCLC
HS 578T breast = tested on: HS 578T breast
HT29 colon = tested on: HT29 colon
IGROV1 ovarian = tested on: IGROV1 ovarian
K-562 leukemia = tested on: K-562 leukemia
KM12 colon = tested on: KM12 colon
LOX IMVI melanoma = tested on: LOX IMVI melanoma
M14 melanoma = tested on: M14 melanoma
MALME-3M melanoma = tested on: MALME-3M melanoma
MCF7 breast = tested on: MCF7 breast
MDA-MB-231 breast = tested on: MDA-MB-231 breast
MDA-MB-435 = tested on: MDA-MB-435
MDA-N = tested on: MDA-N
MOLT-4 leukemia = tested on: MOLT-4 leukemia
NCI-H226 lung = tested on: NCI-H226 lung
NCI-H23 lung = tested on: NCI-H23 lung
NCI-H322M lung = tested on: NCI-H322M lung
NCI-H460 lung = tested on: NCI-H460 lung
NCI-H522 lung = tested on: NCI-H522 lung
NCI/ADR-RES ovarian = tested on: NCI/ADR-RES ovarian
OVCAR-3 ovarian = tested on: OVCAR-3 ovarian
OVCAR-4 ovarian = tested on: OVCAR-4 ovarian
OVCAR-5 ovarian = tested on: OVCAR-5 ovarian
OVCAR-8 ovarian = tested on: OVCAR-8 ovarian
PC-3 prostate = tested on: PC-3 prostate
RPMI-8226 leukemia = tested on: RPMI-8226 leukemia
RXF 393 renal = tested on: RXF 393 renal
SF-268 CNS = tested on: SF-268 CNS
SF-295 CNS = tested on: SF-295 CNS
SF-539 CNS = tested on: SF-539 CNS
SK-MEL-2 melanoma = tested on: SK-MEL-2 melanoma
SK-MEL-28 melanoma = tested on: SK-MEL-28 melanoma
SK-MEL-5 melanoma = tested on: SK-MEL-5 melanoma
SN12C renal = tested on: SN12C renal
SNB-19 CNS = tested on: SNB-19 CNS
SR leukemia = tested on: SR leukemia
SW-620 colon = tested on: SW-620 colon
T-47D breast = tested on: T-47D breast
TK-10 renal = tested on: TK-10 renal
U251 CNS = tested on: U251 CNS
UACC-257 melanoma = tested on: UACC-257 melanoma
UACC-62 melanoma = tested on: UACC-62 melanoma
UO-31 renal = tested on: UO-31 renal

For `COc1ccc2c(CSCCBr)cc(=O)oc2c1`, the GI50 (786-0 renal) was 19.5 µM, the TGI (786-0 renal) was 39.9 µM and the GI50 (A498 renal) was 25.8 µM. For the same molecule, the TGI (A498 renal) was 93.6 µM, the GI50 (A549 NSCLC) was 38.2 µM and the TGI (A549 NSCLC) was greater than 100 µM. It also gave a GI50 (ACHN renal) of 21.2 µM, a TGI (ACHN renal) of 59 µM and a GI50 (BT-549 breast) of 43.7 µM. The TGI (BT-549 breast) was greater than 100 µM, the GI50 (CAKI-1 renal) was 22.1 µM and the TGI (CAKI-1 renal) was 49.4 µM. It also gave a GI50 (CCRF-CEM leukemia) of 25.6 µM, a TGI (CCRF-CEM leukemia) greater than 100 µM and a GI50 (COLO 205 colon) of 28.5 µM. The TGI (COLO 205 colon) was 69 µM, the GI50 (DU-145 prostate) was 35.3 µM and the TGI (DU-145 prostate) was greater than 100 µM. For the same molecule, the GI50 (EKVX NSCLC) was 63.6 µM, the TGI (EKVX NSCLC) was greater than 100 µM and the GI50 (HCC-2998 colon) was 35.3 µM. For the same molecule, the TGI (HCC-2998 colon) was greater than 100 µM, the GI50 (HCT-116 colon) was 15.7 µM and the TGI (HCT-116 colon) was 41 µM. The GI50 (HCT-15 colon) was 32.4 µM, the TGI (HCT-15 colon) was greater than 100 µM and the GI50 (HL-60(TB) leukemia) was 16 µM. For the same molecule, the TGI (HL-60(TB) leukemia) was 40.1 µM, the GI50 (HOP-62 NSCLC) was 25.4 µM and the TGI (HOP-62 NSCLC) was 97.2 µM. For the same molecule, the GI50 (HOP-92 NSCLC) was 23.8 µM, the TGI (HOP-92 NSCLC) was 45.4 µM and the GI50 (HS 578T breast) was 27.8 µM. The TGI (HS 578T breast) was 86.9 µM, the GI50 (HT29 colon) was 29.6 µM and the TGI (HT29 colon) was greater than 100 µM. For the same molecule, the GI50 (IGROV1 ovarian) was 22.6 µM, the TGI (IGROV1 ovarian) was 75.1 µM and the GI50 (K-562 leukemia) was 31.7 µM. For the same molecule, the TGI (K-562 leukemia) was greater than 100 µM, the GI50 (KM12 colon) was 21.8 µM and the TGI (KM12 colon) was 47.5 µM. For the same molecule, the GI50 (LOX IMVI melanoma) was 14.8 µM, the TGI (LOX IMVI melanoma) was 31.7 µM and the GI50 (M14 melanoma) was 54.9 µM. The TGI (M14 melanoma) was greater than 100 µM, the GI50 (MALME-3M melanoma) was 35.8 µM and the TGI (MALME-3M melanoma) was 90 µM. It also gave a GI50 (MCF7 breast) of 23 µM, a TGI (MCF7 breast) of 81.8 µM and a GI50 (MDA-MB-231 breast) of 33.7 µM. For the same molecule, the TGI (MDA-MB-231 breast) was greater than 100 µM, the GI50 (MDA-MB-435) was 27 µM and the TGI (MDA-MB-435) was 92.4 µM. For the same molecule, the GI50 (MDA-N) was 34.8 µM, the TGI (MDA-N) was greater than 100 µM and the GI50 (MOLT-4 leukemia) was 16.4 µM. For the same molecule, the TGI (MOLT-4 leukemia) was 70.3 µM, the GI50 (NCI-H226 lung) was 20.6 µM and the TGI (NCI-H226 lung) was greater than 100 µM. It also gave a GI50 (NCI-H23 lung) of 25.5 µM, a TGI (NCI-H23 lung) of 99.3 µM and a GI50 (NCI-H322M lung) of 68.2 µM. It also gave a TGI (NCI-H322M lung) greater than 100 µM, a GI50 (NCI-H460 lung) of 23.9 µM and a TGI (NCI-H460 lung) of 90.3 µM. For the same molecule, the GI50 (NCI-H522 lung) was 13.9 µM, the TGI (NCI-H522 lung) was 29.4 µM and the GI50 (NCI/ADR-RES ovarian) was 19.3 µM. The TGI (NCI/ADR-RES ovarian) was 47.6 µM, the GI50 (OVCAR-3 ovarian) was 16.8 µM and the TGI (OVCAR-3 ovarian) was 41.5 µM. For the same molecule, the GI50 (OVCAR-4 ovarian) was 21.9 µM, the TGI (OVCAR-4 ovarian) was 71.1 µM and the GI50 (OVCAR-5 ovarian) was 50.6 µM. For the same molecule, the TGI (OVCAR-5 ovarian) was greater than 100 µM, the GI50 (OVCAR-8 ovarian) was 21.9 µM and the TGI (OVCAR-8 ovarian) was 64.2 µM. It also gave a GI50 (PC-3 prostate) of 35.1 µM, a TGI (PC-3 prostate) greater than 100 µM and a GI50 (RPMI-8226 leukemia) of 17.7 µM. For the same molecule, the TGI (RPMI-8226 leukemia) was 49.6 µM, the TGI (RXF 393 renal) was 0.0984 µM and the GI50 (SF-268 CNS) was 13.8 µM. It also gave a TGI (SF-268 CNS) of 32.2 µM, a GI50 (SF-295 CNS) of 28.1 µM and a TGI (SF-295 CNS) greater than 100 µM. For the same molecule, the GI50 (SF-539 CNS) was 17.7 µM, the TGI (SF-539 CNS) was 52.2 µM and the GI50 (SK-MEL-2 melanoma) was 25.1 µM. For the same molecule, the TGI (SK-MEL-2 melanoma) was 55.5 µM, the GI50 (SK-MEL-28 melanoma) was 88.7 µM and the TGI (SK-MEL-28 melanoma) was greater than 100 µM. It also gave a GI50 (SK-MEL-5 melanoma) of 19.4 µM, a TGI (SK-MEL-5 melanoma) of 39.2 µM and a GI50 (SN12C renal) of 28.8 µM. It also gave a TGI (SN12C renal) greater than 100 µM, a GI50 (SNB-19 CNS) of 56.2 µM and a TGI (SNB-19 CNS) greater than 100 µM. The GI50 (SR leukemia) was 21.8 µM, the TGI (SR leukemia) was 80.9 µM and the GI50 (SW-620 colon) was 33.5 µM. It also gave a TGI (SW-620 colon) greater than 100 µM, a GI50 (T-47D breast) of 41.6 µM and a TGI (T-47D breast) greater than 100 µM. For the same molecule, the GI50 (TK-10 renal) was 35.6 µM, the TGI (TK-10 renal) was greater than 100 µM and the GI50 (U251 CNS) was 16.6 µM. For the same molecule, the TGI (U251 CNS) was 55.5 µM, the GI50 (UACC-257 melanoma) was 33.4 µM and the TGI (UACC-257 melanoma) was greater than 100 µM. For the same molecule, the GI50 (UACC-62 melanoma) was 24.1 µM, the TGI (UACC-62 melanoma) was 59 µM and the GI50 (UO-31 renal) was 29.4 µM. For the same molecule, the TGI (UO-31 renal) was 88.2 µM.
